Assay results reported in US5270148A, “Processing solution for silver halide color photographic materials and method for processing the materials with the processing solution” (priority 1991, dated 1993).

experiment: oxidation reduction potential of aminopolycarboxylic acid ferric complex salts (bleaching agents); format: physicochemical; settings: vs. NHE, pH = 6
Source text: Then, practical examples of the aminopolycarboxylic acid ferric complex salt in this invention are illustrated below together with their oxidation reduction potentials, but the bleaching agents for use in this invention are not limited to these compounds.
The oxidation reduction potential of the bleaching agent is defined as the oxidation reduction potential obtained by the method described in Transactions of the Faraday Society, Vol. 55, (1959), pages 1312-1313.

Row | Oxidation Reduction Potential [mV] | Substance
1 | 110 | Ethylenediaminetetraacetic Acid Ferric Complex Salt [compound 8]
2 | 230 | Diethylene Thioether Diaminetetra-acetic Acid Ferric Complex Salt [compound 5]
3 | 80 | Trans-1,2-cyclohexanediaminetetra-acetic Acid Ferric Complex Salt [compound 10]
